Among the data in publication PMC3210919 (Biochemistry, 2011) are kcat and kcat/Km values, retold here.

Substrate in the data set: CC(=O)C(=O)O
Briefly: Coupling study: initial rates of Pi release at varying pyruvate. Conditions: 15 mM HCO3^−. Type of data set: biochemical, Rhizobium etli.

[1] abbreviates: other: pyruvate varied, (−) acetyl-CoA.

B1: wild-type RePC (Rhizobium etli CFN 42) (protein)
chain: MPISKILVANRSEIAIRVFRAANELGIKTVAIWAEEDKLALHRFKADESYQVGRGPHLARDLGPIESYLSIDEVIRVAKLSGADAIHPGYGLLSESPEFVDACNKAGIIFIGPKADTMRQLGNKVAARNLAISVGVPVVPATEPLPDDMAEVAKMAAAIGYPVMLKASWGGGGRGMRVIRSEADLAKEVTEAKREAMAAFGKDEVYLEKLVERARHVESQILGDTHGNVVHLFERDCSVQRRNQKVVERAPAPYLSEAQRQELAAYSLKIAGATNYIGAGTVEYLMDADTGKFYFIEVNPRIQVEHTVTEVVTGIDIVKAQIHILDGAAIGTPQSGVPNQEDIRLNGHALQCRVTTEDPEHNFIPDYGRITAYRSASGFGIRLDGGTSYSGAIITRYYDPLLVKVTAWAPNPLEAISRMDRALREFRIRGVATNLTFLEAIIGHPKFRDNSYTTRFIDTTPELFQQVKRQDRATKLLTYLADVTVNGHPEAKDRPKPLENAARPVVPYANGNGVKDGTKQLLDTLGPKKFGEWMRNEKRVLLTDTTMRDGHQSLLATRMRTYDIARIAGTYSHALPNLLSLECWGGATFDVSMRFLTEDPWERLALIREGAPNLLLQMLLRGANGVGYTNYPDNVVKYFVRQAAKGGIDLFRVFDCLNWVENMRVSMDAIAEENKLCEAAICYTGDILNSARPKYDLKYYTNLAVELEKAGAHIIAVKDMAGLLKPAAAKVLFKALREATGLPIHFHTHDTSGIAAATVLAAVEAGVDAVDAAMDALSGNTSQPCLGSIVEALSGSERDPGLDPAWIRRISFYWEAVRNQYAAFESDLKGPASEVYLHEMPGGQFTNLKEQARSLGLETRWHQVAQAYADANQMFGDIVKVTPSSKVVGDMALMMVSQDLTVADVVSPDREVSFPESVVSMLKGDLGQPPSGWPEALQKKALKGEKPYTVRPGSLLKEADLDAERKVIEKKLEREVSDFEFASYLMYPKVFTDFALASDTYGPVSVLPTPAYFYGLADGEELFADIEKGKTLVIVNQAVSATDSQGMVTVFFELNGQPRRIKVPDRAHGATGAAVRRKAEPGNAAHVGAPMPGVISRVFVSSGQAVNAGDVLVSIEAMKMETAIHAEKDGTIAEVLVKAGDQIDAKDLLAVYGG
Take B1: for the setting “other: (−) acetyl-CoA”, the kcat is 0.282 ± 0.0133 s⁻¹ and the kcat/Km amounted to 5830 ± 250 M⁻¹ s⁻¹. Also, under setting [1], the kcat was determined as 0.282 ± 0.0133 s⁻¹ and the catalytic efficiency (kcat/Km) was found to be 5830 ± 250 M⁻¹ s⁻¹.
